The source of these data is patent publication US8962670B2, “Anti-cancer agents” (UWM Research Foundation, Inc., priority 2011, dated 2015).

One assay has as its system 49 mer DNA duplex 292. Particulars: 50 μM H2O2 + 100 μM compound.
For assay [1], the system named is SN12C (Renal Cancer cells). Description: Cancer cell growth inhibition (Example 14). Particulars: 10 μM, 48 h. The protocol:
(§1) The abilities of compounds 37, 38 and 40 to inhibit cancer cell growth were evaluated. Results are illustrated in FIG. 4A: Four human cancer cell lines (SR, NCI-H460, CAKI-1, and SN12C) were incubated with 10 μM of compounds 40, 38 and 37 for 48 h (grey bar—37; black bar—40; lined bar—38). […] .

Assay [2] deals with NCI-H460 (Non-small Cell Lung Cancer cells). In words: Cancer cell growth inhibition (Example 14). Particulars: 10 μM, 48 h. Here is the method: as §1

Turning to `CC1(C)OB(c2ccc(C[N+](C)(CCCl)CCCl)cc2)OC1(C)C` [Compound 40, N,N-Bis(2-chloroethyl)-N-methyl-N-[4-(4,4,5,5-tetramethyl-1,3,2-dioxaborolan-2-yl)phenyl]methanaminium bromide], the cross-linking yield in the assay with 49 mer DNA duplex 292 worked out at 2.2%.

Consider `CN1CCOB(c2ccc(C[N+](C)(CCO)CCO)cc2)OCC1`, for which the inhibition entry in assay [1] and in assay [2] was “less toxic” throughout.
